Settings: oral sustained release formulation
Description: During a phase I PK trial of oral treprostinil in SSc patients, the goal was to quantify changes in perfusion as assessed by laser Doppler imaging (LDI) and to determine whether improvements in perfusion correlated with drug concentration.
10 SSc patients with recent or active DU participated in the study.
Dosing: Oral treprostinil titrated up to 4 mg twice daily (BID) as tolerated over 6-8 weeks. Pharmokinetics (PK) and laser Doppler imaging (LDI) assessments: performed when subjects achieved the 2 mg and 4 mg (or maximally tolerated dose) doses. […] 8 serial measures of digital perfusion and drug concentration were obtained over 12 hours at each of the 2 study visits.
Repeated measures analyses were performed using random effects model. Dependent variables were perfusion and skin temperature. The predictor of interest was log-transformed drug concentration. Covariates with p-values less than 0.15 were kept in the model. All data was used, across time points, visits, and hands.

CCCCC[C@H](O)CC[C@@H]1[C@H]2Cc3cccc(OCC(=O)O)c3C[C@H]2C[C@H]1O.OCCNCCO [treprostinil diethanolamine, Treprostinil diethanolamine]
oral absorption: absorbed to reach therapeutic levels
